## AlphaSeq binding of Ab-91 heavy chain variants to a spike HR2 peptide

The target is the same throughout: PDVDLGDISGINAS, from the HR2 region of SARS-CoV-2 spike.

The variants keep the light chain, the linker and the frameworks of Ab-91 (scFv order VL, a (GGGGS)3 linker, VH).
VL: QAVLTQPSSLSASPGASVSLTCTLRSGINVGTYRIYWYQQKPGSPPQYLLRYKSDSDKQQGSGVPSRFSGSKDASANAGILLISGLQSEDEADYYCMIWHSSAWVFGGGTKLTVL
VH: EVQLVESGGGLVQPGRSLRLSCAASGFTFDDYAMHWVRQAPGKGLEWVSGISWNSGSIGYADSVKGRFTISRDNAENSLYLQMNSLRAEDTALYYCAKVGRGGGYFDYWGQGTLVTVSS

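Phage display of a naive human antibody library on the peptide gave the parent. Variants in AAYL51 differ from the parent at up to three CDR positions; double and triple changes were sampled at random. In AlphaSeq, yeast of one mating type display the scFv and yeast of the other type display the target. Binding brings cells together so that they mate, and sequencing counts the barcode pairs among the diploids. Scores were corrected for input abundance and mapped to Kd with protein pairs of known affinity run in the same pool. Mating was done three times.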

Variants are written as CDR1, CDR2 and CDR3 of the heavy chain (limits as in the source). Parent: GFTFDDYAMH, GISWNSGSIGYADSVK, VGRGGGYFDY. Values are log10 of the apparent Kd in nM; lower means stronger binding. Averages over replicates are reported, and they cover detected replicates only. Where no diploid with the target was found in that replicate, the entry reads "nd": below detection, most likely a poor binder, though not proof of it.

GFTFDIYAMH / GISWNDGSIGYADSVK / VGRGGGYFFY: 2.88, 2.00, 3.35 (mean 2.74; controls 0 of 9).
GFTFDDYAMT / GISWNSGSIGHADSVL / VGRGGGYFDY: 4.55, 5.73, nd (mean 5.14; controls 3 of 9).
GFTFDDYAMH / GISWNSGSIWYADSVK / VQRGGGYFVY: 6.28, 5.70, 5.31 (mean 5.76; controls 7 of 9).
GFMFDDYAMH / GIQWNSGSIGYADSVK / VGRGGGYFNY: nd, 3.76, nd (controls 3 of 9).
GFTFDDMAMH / KISWNSGSIGYADSVK / VGRGGGYFDY: 4.74, 3.98, nd (mean 4.36; controls 6 of 9).
GFTFDDYAMH / GISENPGSIGYADSVE / VGRGGGYFDY: nd, 4.84, nd (controls 0 of 9).
GFTQDDYAMH / GIRWNSGSIGYADSVK / VGRGEGYFDY: 2.59, nd, nd (controls 2 of 9).
GFTFDDMAMK / GISWNSGSIGYADSVK / VGRGGGYFHY: nd, nd, nd (controls 1 of 9).
GFTFDDYAFH / GISWNSGSIGYADEVK / VGRGGGYFDW: nd, nd, nd (controls 5 of 9).
GFTVDDYAMH / GISWNSGSIGVADSVK / VGRGGFYFDY: 4.67, 3.44, nd (mean 4.05; controls 1 of 9).
FFEFDDYAMH / GISWNSGSIGYADSVK / VGRGGDYFDY: nd, nd, nd (controls 0 of 9).
GFTSDDYAMH / GESWNSGSIGYADEVK / VGRGGGYFDY: nd, nd, nd (controls 0 of 9).
GFTFDDYAMH / GISWNSGSIGYADSVK / CGRGGGYFDY: nd, 3.68, nd (controls 0 of 9).
GFTFDDYAMH / GISWNSGSIGYRDSVK / VGRSGPYFDY: 3.45, 5.83, 4.50 (mean 4.59; controls 1 of 9).
GFTFDDYCMH / TISWRSGSIGYADSVK / VGRGGGYFDY: 3.83, nd, 4.72 (mean 4.27; controls 0 of 9).
GFTFDDYAMH / GYSWNSGSIGYADSVY / SGRGGGYFDY: nd, 4.81, nd (controls 1 of 9).
GFTFIDYACH / GISWNSGSIGYADSVK / VGRGGGYFDR: nd, nd, 4.64 (controls 1 of 9).
WFTFDDYAMH / GISGNSGSIGPADSVK / VGRGGGYFDY: nd, nd, nd (controls 1 of 9).
GFTFDDYAMH / GISWNGGSLGYADSVK / VGRGGGYTDY: 3.19, 2.57, 2.63 (mean 2.80; controls 4 of 9).
GFQFDDYAMH / GISWNSGSIGYADSVK / VHRGGGYFNY: nd, 3.45, nd (controls 0 of 9).
GFTFDDYAMH / GISPNSGSIGYADSVK / VHRGGGYFDY: nd, nd, nd (controls 0 of 9).
GFTFDDYAVH / GISWNSGSWGYADSVK / VGGGGGYFDY: 4.26, nd, 2.78 (mean 3.52; controls 4 of 9).
GFTMDDDAMH / GISWNSGSIGYADSVK / VGRGGGYFDY: nd, nd, nd (controls 0 of 9).
GFTFDDYAMH / GISWNSGSNGYAASVE / VGRGGGYFDY: nd, nd, nd (controls 0 of 9).
GFTFDDYAMH / GISWNSGMILYADIVK / VGRGGGYFDY: 6.22, 4.66, 4.88 (mean 5.25; controls 5 of 9).
GFTFRDYAMH / GISWNSGSIGYADSVK / VGRGGGYFDY: 1.38, 1.47, 1.09 (mean 1.31; controls 2 of 9).
GFTFDDYAMH / GISWNSGSIGYADSVK / VWRGGGMFIY: 2.23, 1.87, 1.59 (mean 1.90; controls 2 of 9).
TFTWDDYAMH / GISWNSGSIGYADSVK / VGRGIGYFDY: nd, nd, nd (controls 0 of 9).
GFTFDDYAMH / GISWNNGEIGYADSVK / VGRGLGYFDY: 5.18, nd, nd (controls 7 of 9).
KFTFDDYAMH / GISWNSGSIGYADSVK / VGRGGGYFDY: 3.85, 4.40, 3.88 (mean 4.04; controls 4 of 9).
GFSFHDYAMH / GISWNSGSIGYASSVK / VGRGGGYFDY: 3.36, 3.43, 3.62 (mean 3.47; controls 3 of 9).
GFTRDRYAMH / GISWISGSIGYADSVK / VGRGGGYFDY: 4.64, nd, nd (controls 3 of 9).
IFTFDDYAMH / GISWNSGSIFYADSVK / VGRGGGNFDY: nd, nd, nd (controls 4 of 9).
GFTFDDYAMH / GISWNSGSIGYADSVK / VARGRGYFDG: 1.60, 1.67, 1.18 (mean 1.48; controls 5 of 9).
GFTFDDYTMH / GISWNSGSIGYADSVK / VGRGGGYFDY: 4.66, 4.39, nd (mean 4.52; controls 5 of 9).
GFTHDDYAMH / GISWNSGSIGYADSVK / VGRGTDYFDY: 1.51, 1.04, 0.61 (mean 1.05; controls 0 of 9).
GFTFDDYYMH / GISWNSGSIGYADSVK / VGRGGGVFDY: nd, nd, nd (controls 0 of 9).
GFTFDDYAMH / GNSGNSGSIGYADSVK / VGRGGGYQDY: nd, nd, nd (controls 0 of 9).

Top 5 of the variants detected in all replicates, tightest first:

CDR-H1,CDR-H2,CDR-H3,"log10 Kd, replicates","mean, log10 nM",empty controls
GFTHDDYAMH,GISWNSGSIGYADSVK,VGRGTDYFDY,"1.51, 1.04, 0.61",1.05,0/9
GFTFRDYAMH,GISWNSGSIGYADSVK,VGRGGGYFDY,"1.38, 1.47, 1.09",1.31,2/9
GFTFDDYAMH,GISWNSGSIGYADSVK,VARGRGYFDG,"1.60, 1.67, 1.18",1.48,5/9
GFTFDDYAMH,GISWNSGSIGYADSVK,VWRGGGMFIY,"2.23, 1.87, 1.59",1.90,2/9
GFTFDIYAMH,GISWNDGSIGYADSVK,VGRGGGYFFY,"2.88, 2.00, 3.35",2.74,0/9

Background: pairings of library AAYL51 with three empty control strains gave a value in 21% of cases (median 4.54, 5th percentile 3.26). Values in that range, when seen in few replicates, are hard to tell from nonspecific mating. The control count says in how many pairings with the empty strains this scFv gave a signal.

The measurements come from Engelhart et al. 2022 (doi:10.1038/s41597-022-01779-4) through the FLAb antibody collection.